# Experimental data reported in PubChem BioAssay AID1308 (The Scripps Research Institute Molecular Screening Center, 2008).
# Only a part is listed here, and it is no random draw. Calls of active or inactive are those of the source.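 The calls were made as follows: active = inhibition above the mean of solvent-only control wells plus 3 SD, cutoff set per campaign (cut at about 13% in these data); inactive = the rest.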
# Experiment: NF-kB reporter inhibitors in human cells, confirmation, counter-screen for STAT3 inhibitor project, cell-based, HEK293T, luciferase, TNF-alpha stimulus (AID 1308);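 also: 0% = TNF-alpha with DMSO and 100% = TNF-alpha with MG high control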
# Conditions: TNF-alpha induced, at 5.7 µM, active compounds read high
row,Compound,inhibition
1,O=c1c2cc([N+](=O)[O-])ccc2[nH]c2c([N+](=O)[O-])cc([N+](=O)[O-])cc12,active: 15.9%
